# Bioassay records deposited in PubChem by ICCB-Longwood Screening Facility, Harvard Medical School.
# Shown are actives, neighbours in structure and some others; about 0.46% of the full set was active somewhere.
# GIV-Gai inh – inhibitors of GIV GBA-motif binding to rat Galpha-i3; P08753; Galpha-i3/FITC-GIV peptide fluorescence polarization, 90 min; hits give low values; scaled: aluminum fluoride 0%, vehicle 100%; percent of control (FP), % (no concentration beside the values); hit rate 0.42% among 210,000; AID 1224905;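 active = replicate mean at 85% of control or lower, very high polarization wells dropped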;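 note: wells of about 15 µL received 100 nL stock; the first replicate is given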
# HCMV UL50-53 inh – disrupts HCMV UL50-UL53 complex binding; HTRF UL50-UL53 interaction, normalized percent inhibition; inhibition, % (no concentration beside the values); hit rate 0.15% among 190,000; AID 1918969; in the data active = inhibition above about 27%, passing the limit was not always enough
# GIV Gai FP conf – GIV-Galpha-i3 inhibition, FP confirmation; hit rate 38% among 580; shares compounds with GIV-Gai inh; fluorescence polarization, mP at 100 µM; FITC-GIV peptide binding to Galphai3, fluorescence polarization; active compounds read low;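 active = inhibition score of 15 or more, meaning 100 minus mean polarization as percent of control over three replicates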;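 note: lower mP means peptide displaced from Galphai3 so more inhibition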
# GIV-Gai AS conf – GIV-Galpha-i3 inhibition, AlphaScreen confirmation | shares compounds with GIV-Gai inh | AlphaScreen Galphai3-GIV binding, purified proteins, 90 min; active compounds read low | AlphaScreen counts at 100 µM | AID 1259351 | hit rate 39% among 580;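 active = inhibition score at or above a set limit, where the score is 100 minus the three-replicate mean percent of control signal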
# * hit, by the source's call; · = not tested or not shown.
no.	compound	GIV-Gai inh	HCMV UL50-53 inh	GIV Gai FP conf	GIV-Gai AS conf
1	Cc1nn(-c2cc(N3CCOCC3)ncn2)c(C)c1CCC(=O)N1CCN(c2ccc(F)cc2)CC1	97	1	·	·
2	O=C1N=c2ccccc2=C1N=Nc1c(O)[nH]c2ccccc12	57*	-42	51*	9884*
3	O=C1CSC(N=Nc2c(O)[nH]c3ccccc23)=N1	110	-84	·	·
4	CCOC(=O)c1ccc(NC(=O)CCN2C(=O)/C(=C\C(C)=C\c3ccccc3)SC2=S)cc1	100	-2	·	·
5	O=C1C(NS(=O)(=O)c2ccccc2)=C/C(=N\S(=O)(=O)c2ccc(F)cc2)c2ccccc21	92	·	·	·
6	O=C(O)c1cccc(S(=O)(=O)/N=C2/C=C(NS(=O)(=O)c3ccccc3)C(=O)c3ccccc32)c1	63*	·	62	12814*
7	CCc1cccc2c(/C=C3/C(=O)N(C)c4ccccc43)cn(CC(=O)NC3CCCC3)c12	80*	·	34*	42825
8	CCN(CC)C(=O)Cn1cc(/C=C2/C(=O)N(C)c3ccccc32)c2ccccc21	104	·	·	·
9	CCOc1ccc(C(=O)Nc2ccc3oc(-c4ccncc4)nc3c2)cc1Br	108	·	·	·
10	CCOc1ccc(C(=O)Nc2ccc(-c3nc4ccccc4o3)cc2)cc1Br	69*	7	79	44420
11	CCSc1nnc(-c2nn(C)c3c2CN(S(=O)(=O)Cc2ccccc2F)CC3)n1CC	107	·	·	·
12	Nc1cccc2c1C(=O)N(CC(=O)O)C2=O	81*	-41	72	47777
13	Nc1cccc2c1C(=O)N(CC(=O)NC13CC4CC(CC(C4)C1)C3)C2=O	·	-17	·	·
14	CCOc1ccc(CCNC(=O)Cc2ncn[nH]2)cc1OCC	·	-15	·	·
15	Cc1cc(N2CCOCC2)c(F)cc1C(=O)c1ccccc1	92	-23	68	43945
16	Cc1ccc(C(=O)c2cc(F)c(N3CCOCC3)cc2Cl)cc1C	105	·	·	·
17	O=C(Nc1sc2c(c1C(=O)NCC1CCCO1)CCCC2)c1cc(=O)c2ccccc2o1 (configuration not stated)	101	-16	·	·
18	COC(=O)c1c(NC(=O)c2cc(=O)c3ccccc3o2)sc2c1CCCC2	125	-21	59	43666
19	COc1ccc2c(c1)c(/C=C/c1nc3ccccc3c(=O)n1-c1cccc(C)c1)c(C)n2C	66*	-10	72	43303
20	COc1ccc2c(c1)c(/C=C/c1nc3ccccc3c(=O)n1-c1ccccc1)c(C)n2C	107	-3	·	·
21	COc1ccc(NC(=O)CCn2c(=O)oc3ccccc32)cc1	104	-13	·	·
22	COc1ccc2c(c1)N(C)/C(=c1/s/c(=C3/C(=O)N(c4ccccc4)N=C3C)n(C)c1=O)S2	73*	-34	75	34539
23	COc1ccc2c(c1)N(C)/C(=c1/s/c(=C3/C(=O)N(C)C(=S)N3C)n(Cc3ccccc3)c1=O)S2	111	·	·	·
24	CCOC(=O)c1c(C)[nH]c(C(=O)OCc2nc(N)nc(Nc3ccccc3C)n2)c1C	·	-17	·	·

# Some values from the list.
# compound 23 @ GIV-Gai inh: 111
# compound 21 @ HCMV UL50-53 inh: -13
# compound 16 @ GIV-Gai inh: 105
# compound 19 @ GIV-Gai inh: 66*

# Carrying on.
no.	compound	GIV-Gai inh	HCMV UL50-53 inh	GIV Gai FP conf	GIV-Gai AS conf
25	CCn1c2ccccc2n2cc(-c3ccc4c(c3)OCO4)nc12	97	-13	·	·
26	CN(C)S(=O)(=O)c1ccc(C(=O)OCc2nc(-c3ccccc3)no2)cc1	·	-11	·	·
27	COc1ccc(N2C(=O)c3c(C)nc4ccccc4c3C2=O)cc1OC	103	-29	·	·
28	COc1ccc(N2C(=O)c3c(C)nc4ccccc4c3C2=O)cn1	84*	-38	55	42415
29	C=CCNc1nc(OC)nc(N2CCC(Cc3ccccc3)CC2)n1	117	·	·	·
30	CCOc1c(C(=O)OC)sc2ccc(NC(=O)c3[nH]nc4c3CCc3ccccc3-4)cc12	102	·	·	·
31	Cn1c(=O)oc2cc(S(=O)(=O)N3CCN(C(=O)CNC(=O)c4ccccc4)CC3)ccc21	107	·	·	·
32	Cc1ccc(COc2ccc(Br)cc2C=C2C(=O)NC(=S)NC2=O)cc1	100	8	·	·
33	O=C1NC(=O)C(=Cc2cc(Br)ccc2OCc2ccc(Cl)cc2)C(=O)N1	78*	50*	62	39620
34	Nc1c(C(=O)N2CCCCC2)sc2nc(-c3cccs3)cc(C(F)(F)F)c12	·	-1	·	·
35	COc1ccc(NC(=O)c2sc3nc(C)cc(C(F)(F)F)c3c2N)cc1	125	·	·	·
36	COc1cccc(NC(=O)c2sc3nc4c(c(-c5ccc(C)o5)c3c2N)CCCC4)c1	115	·	·	·

# Reprinted from the part before: 3 compounds; new compounds follow.
no.	compound	GIV-Gai inh	HCMV UL50-53 inh	GIV Gai FP conf	GIV-Gai AS conf
34	Nc1c(C(=O)N2CCCCC2)sc2nc(-c3cccs3)cc(C(F)(F)F)c12	·	-1	·	·
35	COc1ccc(NC(=O)c2sc3nc(C)cc(C(F)(F)F)c3c2N)cc1	125	·	·	·
36	COc1cccc(NC(=O)c2sc3nc4c(c(-c5ccc(C)o5)c3c2N)CCCC4)c1	115	·	·	·
37	COc1ccc(-c2c3c(nc4sc(C(=O)Nc5cccc(OC)c5)c(N)c24)CC(C)(C)CC3=O)cc1	104	-26	·	·
38	COc1cccc(NC(=O)c2sc3nc4c(c(-c5ccco5)c3c2N)CCC4)c1	85*	·	65	51091
39	Nc1c(C(=O)NC2CC2)sc2nc(-c3cccs3)cc(C(F)(F)F)c12	45*	·	64	53248
40	Cc1cc(C(F)(F)F)c2c(N)c(C(=O)Nc3ccc(F)cc3)sc2n1	61*	-18	64	59274
